From publication PMC6326798 come the findings set out here.

Residue numbers refer to the chain shown, from its start. Numbers in names are those of the source.

The chains are these.
T1: GST-hsCENP-K^ΔN85, Q9BS16
T1 chain: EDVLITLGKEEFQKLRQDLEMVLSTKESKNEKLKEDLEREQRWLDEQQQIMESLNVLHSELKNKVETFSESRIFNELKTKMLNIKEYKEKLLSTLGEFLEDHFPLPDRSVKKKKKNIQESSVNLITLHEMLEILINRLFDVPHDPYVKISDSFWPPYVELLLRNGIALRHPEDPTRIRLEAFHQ

T2: non-tagged hsCENP-K, Q9BS16
T2 chain: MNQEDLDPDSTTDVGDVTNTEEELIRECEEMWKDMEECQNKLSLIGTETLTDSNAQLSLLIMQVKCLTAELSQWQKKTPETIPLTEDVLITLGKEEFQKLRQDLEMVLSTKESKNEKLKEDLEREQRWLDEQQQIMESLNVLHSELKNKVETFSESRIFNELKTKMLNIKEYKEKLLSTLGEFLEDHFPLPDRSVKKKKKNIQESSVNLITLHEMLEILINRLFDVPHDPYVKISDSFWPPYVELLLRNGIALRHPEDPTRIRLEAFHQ

B1: hsCENP-H WT (recombinant, GST pull-down), Q9H3R5 L233A (protein)
chain: MEEQPQMQDADEPADSGGEGRAGGPPQVAGAQAACSEDRMTLLLRLRAQTKQQLLEYKSMVDASEEKTPEQIMQEKQIEAKIEDLENEIEEVKVAFEIKKLALDRMRLSTALKKNLEKISRQSSVLMDNMKHLLELNKLIMKSQQESWDLEEKLLDIRKKRLQLKQASESKLLEIQTEKNKQKIDLDSMENSERIKIIRQNLQMEIKITTVIQHVFQNLILGSKVNWAEDPAAKEIVLQLEKNVDMM
B2: hsCENP-H WT (recombinant, GST pull-down), Q9H3R5 V225A (protein)
chain: B1 chain with V225A, A233L
B3: hsCENP-H WT (recombinant, GST pull-down), Q9H3R5 K234E; L238A (protein)
chain: B1 chain with A233L, K234E, L238A
B4: hsCENP-H WT (recombinant, GST pull-down), Q9H3R5 L219A; V225A (protein)
chain: B1 chain with L219A, V225A, A233L
B5: hsCENP-H WT (recombinant, GST pull-down), Q9H3R5 V225A; L233A (protein)
chain: B1 chain with V225A
B6: hsCENP-H WT (recombinant, GST pull-down), Q9H3R5 L219A; L233A (protein)
chain: B1 chain with L219A
B7: hsCENP-H WT (recombinant, GST pull-down), Q9H3R5 L238A (protein)
chain: B1 chain with A233L, L238A
B8: hsCENP-H WT (recombinant, GST pull-down), Q9H3R5 K234E (protein)
chain: B1 chain with A233L, K234E
B9: hsCENP-H WT (recombinant, GST pull-down), Q9H3R5 L219A (protein)
chain: B1 chain with L219A, A233L
B10: GFP-hsCENP-H WT, Q9H3R5 L219A; L233A (protein)
chain: B1 chain with L219A
B11: GFP-hsCENP-H WT, Q9H3R5 K234E; L238A (protein)
chain: B1 chain with A233L, K234E, L238A

The first experiment deals with T1, GST-hsCENP-K^ΔN85, Q9BS16. The experiment in a line: GST pull-down. To be noted: chain shown with the change;; parent: est. 1.0; read off a plot.
With B1, the ratio to parent amounted to 0.69. Same read-out and setting: then B2, with 0.7; and B3, with 1.1; and B4, with 0.33.

As to B5, the ratio to parent came out at 0.46. As for B6, the ratio to parent is 0.35.

As to B7, the ratio to parent worked out at 1.1. On the same count and under the same terms, then B8, with 1.1; and B9, with 0.65.

The next experiment has as its target T2, non-tagged hsCENP-K, Q9BS16. The experiment in a line: co-immunoprecipitation (anti-GFP IP, western blot quantification). As to conditions: chain shown with the change; HeLa Tet-On cells co-transfected with GFP-hsCENP-H, non-tagged hsCENP-K and MYC-hsCENP-I; parent: est. 1.0; read off a plot.
In the case of B10, the ratio to parent turned out to be 0.66. The same measure, in the same setting: the value for B11 was 0.91.
